The values that follow come from PubChem BioAssay AID1631 (National Center for Advancing Translational Sciences (NCATS), 2009).

Amino acid sequences for entries named in this document (tags omitted).
UniProt P14618, whole entry: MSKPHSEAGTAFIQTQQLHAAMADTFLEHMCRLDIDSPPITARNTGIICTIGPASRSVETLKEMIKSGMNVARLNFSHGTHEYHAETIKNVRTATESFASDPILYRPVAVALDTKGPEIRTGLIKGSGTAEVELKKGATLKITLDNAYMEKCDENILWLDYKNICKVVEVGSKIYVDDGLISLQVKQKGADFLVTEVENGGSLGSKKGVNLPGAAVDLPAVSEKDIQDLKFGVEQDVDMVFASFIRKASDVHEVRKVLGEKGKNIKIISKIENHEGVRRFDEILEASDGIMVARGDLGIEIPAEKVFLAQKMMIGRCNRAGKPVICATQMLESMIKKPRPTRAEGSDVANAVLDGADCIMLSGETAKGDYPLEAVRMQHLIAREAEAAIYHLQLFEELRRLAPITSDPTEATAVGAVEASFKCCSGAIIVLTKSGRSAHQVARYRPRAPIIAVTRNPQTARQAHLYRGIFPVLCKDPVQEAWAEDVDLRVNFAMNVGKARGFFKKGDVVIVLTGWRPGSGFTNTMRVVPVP

Only a part is listed here, and it is no random draw. Some structures show a salt or complex split into parts, the way the source records it. Active and inactive are the calls of the source. Calls follow the shape of the dose curve; as a rule, active = well fitted activation curve with a large enough effect; inconclusive = small, poorly fitted or top-dose-only effect; inactive = no such curve, though single readings can be large or run the other way.
% is scaled to controls: 0 for no effect and ±100 for the full control effect.

The experiment deals with Pyruvate kinase PKM (Homo sapiens) (UniProt P14618). Put plainly: qHTS Assay for Activators of Human Muscle isoform 2 Pyruvate Kinase. Also: nearly all actives have a fitted effect of over 55% in size. Particulars: purified PKM2, Kinase-Glo ATP luminescence, 0% is enzyme alone, no compound; at 57.5 µM (top of the series) unless noted. From the text: NIH Chemical Genomics Center [NCGC] Matthew G. Vander Heiden, M.D., Ph.D. [Harvard Medical School, 77 Avenue Louis Pasteur, Boston, MA 02115] MLPCN Grant: 1 R03 MH085679-01 NCGC Assay Overview: Human pyruvate kinase muscle 2 (hPK-M2) enzyme was supplied as a highly purified (>95% pure) preparation from Harvard Medical School and assayed for its ability to generate ATP from ADP using phosphoenolpyruvate (PEP) as a substrate. ATP generation was detected in a coupled reaction by luciferase-mediated luminescence, an ATP-dependent process. […] The enzyme was assayed at an intermediate level of activity to screen for both inhibitors and activators.
NCGC Assay Protocol Summary: Three uL of substrate mix (at r.t.) in assay buffer (50 mM Imidazole pH7.2, 50 mM KCl, 7 mM MgCl2, 0.01% Tween 20, 0.05% BSA) was dispensed into white solid bottom 1,536 well microtiter plates so that the final concentrations of substrates in the assay were 0.1 mM ADP and 0.5 mM PEP. 23 nL of compound were delivered by a pin tool and 1 uL of enzyme mix in assay buffer (4 degree Celsius) was added. Plates were incubated at room temperature for 1 hour. Two uL of detection mix (Kinase-Glo, Promega; at 4 degree Celsius protected from light) was added and luminescence read by a ViewLux (Perkin Elmer) at 5 second exposure/plate. Data were normalized to the uninhibited and AC100 inhibition (no enzyme). To monitor activation, the first column contained a titration of the activator, NCGC00031955-01 (16-point 1:2 dilutions in duplicate starting at 57 uM) and the first 16 rows of column 4 contained 57 uM of NCGC00031955-01.
In general terms: qHTS replaces the single test concentration by a dilution series.
As for `CSc1ccccc1C(=O)NCC1(N2CCCCC2)CCCCC1`, the activation is inactive: 1.58%.

Consider `O=C(NCC1(N2CCCCC2)CCCCC1)c1ccc(=O)[nH]c1`, for which the activation was inactive: 1.37%.

Regarding `COc1ccc(C(=O)NCC2(N3CCCCC3)CCCCC2)c(OC)c1OC`, the activation is inactive: -3.38%. As for `COc1ccc(C(=O)NCC2(N3CCCCC3)CCCCC2)cc1`, the figure is inactive: -3.65%; as for `COc1ccc2c(c1O)-c1c(O)c(OC)cc3c1[C@H](C2)[N+](C)(C)CC3.O=[N+]([O-])c1cc([N+](=O)[O-])c([O-])c([N+](=O)[O-])c1[O-]`, inactive: -3.59%; as for `O=C(OC1CN2CCC1CC2)c1ccc([N+](=O)[O-])cc1` (stereo not given), inactive: 0.882%. Regarding `O=[N+]([O-])c1cc([N+](=O)[O-])c(OC2CCCCC2O)c([N+](=O)[O-])c1` (stereo not given), the activation is inactive: 0.665% [at 11.5 µM]. For `CN(C)c1cccc(C(=O)NCC2(N3CCCCC3)CCCCC2)c1`, the activation was inactive: 0.0217%. As for `COc1ccc(CN(CCCl)CCCl)cc1Cl`, the figure is inactive: 6.38%; as for `CC(C)c1ccc(NC2CCN(C(=O)OC(C)(C)C)CC2)cc1`, inactive: 0.887%. Take `CN1CCN(CCOC(=O)C(O)(c2ccccc2)c2ccccc2)CC1`: the activation was inactive: -2.88%.

Turning to `COc1ccc(NC2CCN(C(=O)OC(C)(C)C)CC2)cc1`, the activation was inactive: 1.68%. For `COc1cc(C(=O)NCC2(N3CCCCC3)CCCCC2)ccc1OC(F)F` the value was inactive: 0.591%. For `O=C(NCC1(N2CCOCC2)CCCCC1)c1cc(=O)[nH]c2ccccc12` the value was inactive: -11.7%. As for `O=C(NCC1(N2CCCCC2)CCCCC1)c1cccc(C(F)(F)F)c1`, the figure is inactive: 0.525%; as for `O=[N+]([O-])c1cc([N+](=O)[O-])c(NCC2CCS(=O)(=O)C2)c([N+](=O)[O-])c1` (stereo not given), inactive: 7.18%; as for `O=C(NCC1(N2CCCCC2)CCCCC1)c1cccc([N+](=O)[O-])c1`, inactive: -4.09%. For `N#CC1(Nc2ccccc2)CCN(CCc2ccccc2)CC1`, the activation is inactive: 4.05%. On to `CCN1CCC(Nc2ccc(Cl)cc2)CC1`, for which the activation was inactive: 5.12%.

For the molecule `O=C(NCC1(N2CCCCC2)CCCCC1)c1ccc(OC(F)F)cc1`, the activation was inactive: 5.11%.
